Reference: patent US7247641B2, “Compounds, derivatives, compositions, preparation and uses” (MGI GP, Inc., priority 2001, dated 2007)

Chains of the proteins cited; added tags and fusions are not shown.
UniProt P09874, whole entry: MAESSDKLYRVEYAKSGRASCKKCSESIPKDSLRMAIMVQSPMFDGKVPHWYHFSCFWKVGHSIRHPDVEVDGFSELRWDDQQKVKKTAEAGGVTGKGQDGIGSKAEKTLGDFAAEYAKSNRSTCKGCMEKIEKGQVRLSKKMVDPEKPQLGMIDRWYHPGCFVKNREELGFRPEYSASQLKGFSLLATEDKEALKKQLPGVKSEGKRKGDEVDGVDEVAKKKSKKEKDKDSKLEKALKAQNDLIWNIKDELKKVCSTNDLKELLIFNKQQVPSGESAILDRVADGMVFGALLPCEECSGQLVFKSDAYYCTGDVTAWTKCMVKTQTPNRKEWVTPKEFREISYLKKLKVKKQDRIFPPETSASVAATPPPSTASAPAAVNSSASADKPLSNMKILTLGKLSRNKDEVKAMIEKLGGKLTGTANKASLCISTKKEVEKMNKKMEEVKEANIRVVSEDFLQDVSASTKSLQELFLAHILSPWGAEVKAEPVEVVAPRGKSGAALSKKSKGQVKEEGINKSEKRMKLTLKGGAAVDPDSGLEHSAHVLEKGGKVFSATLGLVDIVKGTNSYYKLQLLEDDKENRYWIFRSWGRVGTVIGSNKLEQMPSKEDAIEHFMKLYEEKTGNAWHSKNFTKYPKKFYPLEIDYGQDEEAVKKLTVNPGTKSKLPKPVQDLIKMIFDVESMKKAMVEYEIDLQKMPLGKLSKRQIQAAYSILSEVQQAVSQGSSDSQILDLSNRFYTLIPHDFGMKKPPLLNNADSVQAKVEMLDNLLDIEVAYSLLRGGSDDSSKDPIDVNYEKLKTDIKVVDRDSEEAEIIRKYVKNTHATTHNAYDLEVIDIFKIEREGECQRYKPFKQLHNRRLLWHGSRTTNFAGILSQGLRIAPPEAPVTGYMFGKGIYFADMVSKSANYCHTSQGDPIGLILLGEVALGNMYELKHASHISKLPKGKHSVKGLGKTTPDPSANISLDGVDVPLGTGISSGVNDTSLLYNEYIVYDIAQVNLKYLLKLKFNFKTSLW

Biological target: purified recombinant human PARP (Homo sapiens, UniProt P09874)
Assay: PARP enzyme assay, [3H]NAD incorporation, IC50
Assay type: biochemical
Conditions: approximate values

Structure (SMILES)	IC50 (tested form: TFA) [nM]	IC50 [nM]
C[C@H](N)C(=O)N1CCc2[nH]c(=O)c3ccccc3c2C1	107	–
N[C@@H](Cc1c[nH]cn1)C(=O)N1CCc2[nH]c(=O)c3ccccc3c2C1	329	–
CC(O)CNCCCC(=O)N1CCc2[nH]c(=O)c3ccccc3c2C1 (single isomer, unassigned) [18u]	–	66
C[S+]([O-])CC[C@H](N)C(=O)N1CCc2[nH]c(=O)c3ccccc3c2C1 (some centres unmarked)	172	–
O=C(CCCN1CCc2ccccc2C1)N1CCc2[nH]c(=O)c3ccccc3c2C1	–	1160
N[C@@H](CCC(=O)O)C(=O)N1CCc2[nH]c(=O)c3ccccc3c2C1	159	–
CC(O)CNCCCC(=O)N1CCc2[nH]c(=O)c3ccccc3c2C1 (single isomer, unassigned) [18t]	–	128
O=C([C@@H]1CCCCN1)N1CCc2[nH]c(=O)c3ccccc3c2C1	129	–
